Assay results: patent US20230038201A1, “TRANSFER FILM, PHOTOSENSITIVE MATERIAL, PATTERN FORMING METHOD, MANUFACTURING METHOD OF CIRCUIT BOARD, AND MANUFACTURING METHOD OF TOUCH PANEL” (FUJIFILM Corporation, priority 2020, published 2023)

Test: Measurement of ε365 and ε365/ε313 of compound β (molar absorption coefficients in acetonitrile)
Format: physicochemical
Parameters: key to ε365 of Compound β: molar absorption coefficient at 365 nm in (cm·mol/L)^−1
[1] = molar absorption coefficient to light of 365 nm in acetonitrile
[2] = molar absorption coefficient to light of 365 nm, in acetonitrile

Row | Structure (SMILES) | ε365 of Compound β [1] | ε365 of Compound β [2] | ε365 (molar absorption coefficient to light having a wavelength of 365 nm) (in acetonitrile)
1 | Cc1c2ccccc2nc2ccccc12 [Example 9-Methylacridine, 9-Methylacridine] | 6300 (cm·mol/L)^−1 | 6300 (cm·mol/L)^−1 | –
2 | O=C(c1ccccc1)c1ccncc1 [4-Benzoylpyridine] | – | – | 69 (cm·mol/L)^−1
3 | Cc1nccc2ccccc12 [Example B6, 1-Me-isoquinoline] | <10 (cm·mol/L)^−1 | <10 (cm·mol/L)^−1 | <10 (cm·mol/L)^−1
4 | c1ccc(-c2c3ccccc3nc3ccccc23)cc1 [Example B10, 9-phenylacridine] | – | – | >10000 (cm·mol/L)^−1
5 | Cc1cc(C)c2c(C)cc(C)nc2c1 [2,4,5,7-Tetramethylquinoline] | <10 (cm·mol/L)^−1 | <10 (cm·mol/L)^−1 | –
6 | Nc1ccncc1 [Example 4-Aminopyridine, 4-Aminopyridine] | <100 (cm·mol/L)^−1 | <100 (cm·mol/L)^−1 | –
7 | c1ccncc1 [Example B11, pyridine] | <10 (cm·mol/L)^−1 | <10 (cm·mol/L)^−1 | <10 (cm·mol/L)^−1
8 | CCCCc1ncc(C)c2ccccc12 [Example 1-n-Butyl-4-methylisoquinoline, 1-n-Butyl-4-methylisoquinoline] | <10 (cm·mol/L)^−1 | <10 (cm·mol/L)^−1 | –
9 | Cc1cc(C)c2c(C)cc(C)nc2c1 [Example B7, 2,4,5,7-tetramethylquinoline] | – | – | <10 (cm·mol/L)^−1
10 | Cc1c2ccccc2nc2ccccc12 [Example B9, 9-methylacridine] | – | – | 6300 (cm·mol/L)^−1
11 | COc1cc(C)nc2ccccc12 [Example B8, 2-methyl-4-methoxyquinoline] | – | – | <10 (cm·mol/L)^−1
12 | CCCCc1nccc2ccccc12 [Example 1-n-Butylisoquinoline, 1-n-Butylisoquinoline] | <10 (cm·mol/L)^−1 | <10 (cm·mol/L)^−1 | –
13 | CCCCc1ncc(C)c2ccccc12 [Example B5, 1-n-butyl-4-methylisoquinoline] | – | – | <10 (cm·mol/L)^−1
14 | CCn1c2ccc(C(=O)c3ccccc3C)cc2c2cc(C(C)=NOC(C)=O)ccc21 [OXE-02, etanone,1-[9-ethyl-6-(2-methylbenzoyl)-9H-carbazol-3-yl]-,1-(O-acetyloxime)] | – | – | 2700 (cm·mol/L)^−1
15 | c1ccc(-c2c3ccccc3nc3ccccc23)cc1 [Example 9-Phenylacridine, 9-Phenylacridine] | >10000 (cm·mol/L)^−1 | >1000 (cm·mol/L)^−1 | –
16 | CCCCc1nccc2ccccc12 [Example B4, 1-n-butylisoquinoline] | – | – | <10 (cm·mol/L)^−1
17 | Nc1ccncc1 [Example B13, 4-aminopyridine] | – | – | <100 (cm·mol/L)^−1
18 | c1ccc2c(c1)cnc1ccccc12 [Phenanthridine] | – | – | 500 (cm·mol/L)^−1
19 | c1ccc2ncccc2c1 [Example B2, quinoline] | <10 (cm·mol/L)^−1 | <10 (cm·mol/L)^−1 | <10 (cm·mol/L)^−1
20 | Cc1cc(C)c2ccccc2n1 [Example B12, 2,4-dimethylquinoline] | <10 (cm·mol/L)^−1 | <10 (cm·mol/L)^−1 | <10 (cm·mol/L)^−1
21 | Clc1ccccn1 [Example 2-Chloropyridine, 2-Chloropyridine] | <10 (cm·mol/L)^−1 | <10 (cm·mol/L)^−1 | –
22 | COc1cc(C)nc2ccccc12 [Example 2-Methyl-4-methoxyquinoline, 2-Methyl-4-methoxyquinoline] | <10 (cm·mol/L)^−1 | <10 (cm·mol/L)^−1 | –
23 | CSc1ccc(C(=O)C(C)(C)N2CCOCC2)cc1 [Omn907, 2-methyl-1-(4-methylthiophenyl)-2-morpholinopropan-1-one] | – | – | 120 (cm·mol/L)^−1
24 | c1ccc2cnccc2c1 [Example B1, isoquinoline] | <10 (cm·mol/L)^−1 | <10 (cm·mol/L)^−1 | <10 (cm·mol/L)^−1
25 | c1ccc2nc3ccccc3cc2c1 [Example B3, acridine] | 4900 (cm·mol/L)^−1 | 4900 (cm·mol/L)^−1 | 4900 (cm·mol/L)^−1
